Test results reported in patent publication US20100129356A1 (Genentech, published 2010).

Sequences of proteins named here, by UniProt entry; tags and fusion partners are left off. Residues count along the entry.
UniProt P05187, 23-511: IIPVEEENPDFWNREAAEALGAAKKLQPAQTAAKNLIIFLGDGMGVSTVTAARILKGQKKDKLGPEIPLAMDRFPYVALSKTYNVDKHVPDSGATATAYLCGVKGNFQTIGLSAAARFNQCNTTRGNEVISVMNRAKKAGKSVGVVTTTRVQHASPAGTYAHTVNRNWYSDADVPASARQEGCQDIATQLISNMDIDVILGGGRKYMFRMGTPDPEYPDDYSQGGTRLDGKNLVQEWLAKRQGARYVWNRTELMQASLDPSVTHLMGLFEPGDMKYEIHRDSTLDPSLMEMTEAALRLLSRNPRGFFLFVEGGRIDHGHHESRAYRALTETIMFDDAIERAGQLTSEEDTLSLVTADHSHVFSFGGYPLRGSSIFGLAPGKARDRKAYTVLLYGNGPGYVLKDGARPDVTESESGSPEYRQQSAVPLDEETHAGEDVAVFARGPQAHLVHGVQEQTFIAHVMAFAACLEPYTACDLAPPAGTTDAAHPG

Target: DLL4-AP (amino acid 1-404 of DLL4 fused to human placenta alkaline phosphatase) (human, UniProt P05187 23-511)
Assay: blocking ELISA: antibody titrated against DLL4-AP binding to coated rrNotch1-Fc

B1: anti-DLL4 Mab YW26.82 (antibody, V domains shown)
VH: EVQLVESGGGLVQPGGSLRLSCAASGFTFTDNWISWVRQAPGKGLEWVGYISPNSGFTYYADSVKGRFTISADTSKNTAYLQMNSLRAEDTAVYYCARDNFGGYFDYWGQGTLVTVSS
VL: DIQMTQSPSSLSASVGDRVTITCRASQDVSTAVAWYQQKPGKAPKLLIYSASFLYSGVPSRFSGSGSGTDFTLTISSLQPEDFATYYCQQSYTGTVTFGQGTKVEIK
With B1 the IC50 was about 12 nM.
